Sequence coverage and unique peptide counts data for one sequence are collected here from patent US20140336126A1.

This assay has as its target GS-TAP-tagged Optn (human) (UniProt Q96CV9). As to the kind of experiment: TAP of GS-tagged Optn from HEK-293 cells, LC-MSMS.

As for “UBIQUITIN AND RIBOSOMAL PROTEIN S27A PRECURSOR.”, the sequence coverage was 0.3 and the unique peptide counts is 4.
